Tests used:
human FSH receptor = human FSH receptor (Homo sapiens, UniProt P23945); assay: hFSHR CHO cAMP assay (rhFSHR-cLUC cells, FSH-stimulated cAMP, radioimmunoassay); conditions: read-out: EC50 hFSHR CHO cAMP; inhibition of cAMP produced by EC70 dose of FSH (4.85 nM); maximum concentration 50 μM
Rat Granulosa Cell = assay: Rat granulosa cell FSH-stimulated cAMP production; conditions: read-out: Rat Granulosa Cell EC50 cAMP; inhibition of cAMP produced by EC70 dose of FSH (1.4 nM); maximum concentration 50 μM
Procedure: Insulin, diethylstilbesterol, androstenedione, forskolin and DMSO were purchased from Sigma (St. Louis, Mo.). Fungizone, penicillin/streptomycin, charcoal-treated heat inactivated fetal bovine serum (CT-HI-FBS) and Dulbecco's Modified Eagle Medium:Hams F12 medium containing 15 mM Hepes and L-glutamine (DMEM:F12), were purchased from GIBCO BRL (Grand Island, N.Y.).
Ovine FSH (NIADDK-oFSH-17; FSH potency=20 NIH-FSH-S1 U/mg; LH contamination=0.04 times NIH-LH-S1) was received from Ogden Bioservices Corporation, Rockville, Md. Human FSH (Fertinex), was purchased from Serono Pharmaceutical (Framingham, Mass.). Human chorionic gonadotropin (hCG) was purchased from Sigma (St Louis, Mo.).
Immature intact female rats (Wistar-derived strain; 21-23 days old) were implanted with a single pellet (Innovative Research of America, Sarasota, Fla.) containing 2.5 mg diethylstilbesterol (DES) for 3 days. On the third day, the animals were sacrificed, the ovaries were removed, and the granulosa cells were isolated essentially as described in Haynes-Johnson et al., Biol. Reprod., 61 (1), 147-153, (1999). Granulosa cells were plated at a density of 300,000 cells per ml with 0.2 ml added to each well of 96 well culture dishes (Corning, N.Y.). Cultures were incubated at 37° C. in a humidified incubator (95% air, 5% CO2) overnight (18 hours).
Androstenedione (100,000X) was prepared by dissolving the steroid in 100% ethanol, and was subsequently diluted to a final concentration of 10^−7M containing 0.1% ethanol in assay media. The assay media was serum-free, DES-free, insulin-free media, prepared by adding 5 mL pen-strep,1.5 mL fungizone and 5 μL androstenedione to 493.5 mL DMEM F-12 media.
Test compounds were solubilized in 30% dimethyl sulfoxide (DMSO) at a concentration of 10 mM before diluting to appropriate concentrations in assay medium. The final DMSO concentration in the treated cells and in the control cells was 0.75%.
Test plates containing the granulosa cells were preincubated for 18 hours at 37° C. with 95% air, 5% CO2, 100% humidity. The spent media was removed and 50 μl assay media (DMEM:F12) containing 2 mM IBMX (3-isobutyl-1-methyl-xanthine) was added to the cells. Compounds (25 μl) in the appropriate concentration were added followed 5 minutes later by an EC70 dose of FSH (25 μl; 50 ng/ml; 1.4 nM). After 30 minutes @ 22.5° C. (room temperature) the reaction was terminated by addition of 25 μL 0.5 N hydrochloric acid to each well. The amount of cAMP produced was measured by radioimmunoassay in a FlashPlate (DuPont, Boston, Mass.). To each flash plate 60 μL flash plate buffer was added followed by 40 μL acidified cell sample or cAMP standard, followed with the addition of 100 μl ^125l-cAMP trace. The FlashPlates were sealed, incubated overnight @ room temperature, and counted in a Packard TopCount (Packard Instrument Co., Meriden, Conn.). The cAMP radioimmunoassay results were calculated using DPM conversion and log-logit transformation of % binding (Excel program).

By UniProt entry, the sequences of proteins in these tests, tags left out. Residues count along the entry.
UniProt P23945, 18-695 limits assumed: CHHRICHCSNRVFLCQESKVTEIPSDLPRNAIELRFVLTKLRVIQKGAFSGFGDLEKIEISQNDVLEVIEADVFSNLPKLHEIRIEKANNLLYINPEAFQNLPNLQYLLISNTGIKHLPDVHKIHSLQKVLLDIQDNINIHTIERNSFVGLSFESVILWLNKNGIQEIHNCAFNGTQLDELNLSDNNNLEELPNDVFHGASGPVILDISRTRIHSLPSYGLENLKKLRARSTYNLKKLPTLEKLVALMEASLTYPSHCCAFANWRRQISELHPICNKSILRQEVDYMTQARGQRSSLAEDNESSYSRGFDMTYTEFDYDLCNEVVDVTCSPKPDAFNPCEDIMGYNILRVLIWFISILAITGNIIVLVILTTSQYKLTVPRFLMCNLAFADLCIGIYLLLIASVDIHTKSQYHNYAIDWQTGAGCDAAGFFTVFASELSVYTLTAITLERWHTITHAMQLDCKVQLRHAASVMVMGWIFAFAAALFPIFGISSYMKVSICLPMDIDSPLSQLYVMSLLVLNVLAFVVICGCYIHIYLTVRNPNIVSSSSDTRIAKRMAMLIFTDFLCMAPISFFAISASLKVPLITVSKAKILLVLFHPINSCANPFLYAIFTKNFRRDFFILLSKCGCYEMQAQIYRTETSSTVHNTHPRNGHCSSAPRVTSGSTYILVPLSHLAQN

Structure (SMILES)	EC50 (human FSH receptor)	EC50 (Rat Granulosa Cell)
COc1ccccc1CCN(CC(=O)NCc1ccc(CN)cc1)S(=O)(=O)c1ccc(Cl)cc1Cl	0.76 µM	1.53 µM
COc1ccc(-c2ccc(S(=O)(=O)N(CC(=O)NCc3ccc(CN)cc3)C[C@H](C)c3ccccc3)cc2)cc1 [202]	0.21 µM	0.15 µM
COc1ccccc1CN(CC(=O)NCC1CCC(CN)CC1)S(=O)(=O)c1ccc(C(F)(F)F)cc1[N+](=O)[O-] (centres unmarked)	37.7 µM	3.89 µM
C[C@@H](CN(CC(=O)NCC1CCC(CN)CC1)S(=O)(=O)c1ccc(-c2ccccc2Cl)cc1)c1ccccc1 (some centres unmarked)	0.11 µM	0.11 µM
C[C@H](CN(CC(=O)NCc1ccc(CN)cc1)S(=O)(=O)c1ccc(-c2ccc(F)cc2)cc1)c1ccccc1	0.15 µM	0.05 µM
COc1cccc(CN(CC(=O)NCC2CCC(CN)CC2)S(=O)(=O)c2ccc(-c3cccc(C(F)(F)F)c3)cc2)c1 (centres unmarked)	6.31 µM	0.64 µM
COc1cccc(CN(CC(=O)NCC2CCC(CN)CC2)S(=O)(=O)c2ccc(-c3ccc(F)c(Cl)c3)cc2)c1 (centres unmarked)	2.3 µM	1.01 µM
COc1ccccc1CN(CC(=O)NCC1CCC(CN)CC1)S(=O)(=O)c1ccccc1C(F)(F)F (centres unmarked)	6.46 µM	1.45 µM
COc1ccccc1CN(CC(=O)NCC1CCC(CN)CC1)S(=O)(=O)c1cc(Cl)ccc1Cl (centres unmarked)	28.5 µM	3.5 µM
COc1ccccc1CCN(CC(=O)NCC1CCC(CN)CC1)S(=O)(=O)c1ccc(-c2ccccc2C(F)(F)F)cc1 (centres unmarked)	0.5 µM	1.07 µM
COc1ccccc1CCN(CC(=O)NCC1CCC(CN)CC1)S(=O)(=O)c1ccc(-c2cccc(Cl)c2)cc1 (centres unmarked)	0.66 µM	0.49 µM
COc1ccc(S(=O)(=O)N(CC(=O)NCC2CCC(CN)CC2)Cc2ccccc2OC)cc1 (centres unmarked)	23.3 µM	5.16 µM
COc1ccccc1CN(CC(=O)NCC1CCC(CN)CC1)S(=O)(=O)c1ccccc1F (centres unmarked)	18.8 µM	5.01 µM
COc1ccccc1CCN(CC(=O)NCc1ccc(CN)cc1)S(=O)(=O)c1cccc(F)c1	1.41 µM	1.35 µM
COc1ccccc1CN(CC(=O)NCC1CCC(CN)CC1)S(=O)(=O)c1ccc(F)cc1 (centres unmarked)	6.24 µM	2.15 µM
COc1ccccc1CCN(CC(=O)N[C@H]1CC[C@H](N)CC1)S(=O)(=O)c1ccc(-c2ccc(C#N)cc2)cc1	10.8 µM	4.89 µM
COc1ccccc1CCN(CC(=O)NCc1ccc(CN)cc1)S(=O)(=O)c1cc(Cl)c(Cl)s1	2.31 µM	25.1 µM
COc1ccccc1CCN(CC(=O)NCc1ccc(CN)cc1)S(=O)(=O)c1ccc(-c2cccc3ccccc23)s1	1.09 µM	0.47 µM
COc1ccccc1CCN(CC(=O)NCC1CCC(CN)CC1)S(=O)(=O)c1ccc(-c2ccc(Cl)cc2Cl)cc1 (centres unmarked)	0.31 µM	0.17 µM

Structure (SMILES)	EC50 (human FSH receptor)	EC50 (Rat Granulosa Cell)
COc1ccccc1CCN(CC(=O)NCc1ccc(CN)cc1)S(=O)(=O)c1cccc([N+](=O)[O-])c1	1.02 µM	1.44 µM
COc1ccccc1CN(CC(=O)NCC1CCC(CN)CC1)S(=O)(=O)c1ccc(Cl)cc1 (centres unmarked)	4.37 µM	0.55 µM
Cc1ccc(-c2ccc(S(=O)(=O)N(CC(=O)NCc3ccc(CN)cc3)C[C@H](C)c3ccccc3)cc2)cc1 [206]	0.35 µM	0.91 µM
COc1ccccc1CCN(CC(=O)NCc1ccc(CN)cc1)S(=O)(=O)c1ccc(-c2ccc(F)c(Cl)c2)cc1	3.37 µM	1.67 µM
COc1ccccc1CN(CC(=O)NCC1CCC(CN)CC1)S(=O)(=O)c1ccc(I)cc1 (centres unmarked)	38.5 µM	1.46 µM
COc1ccccc1CN(CC(=O)NCC1CCC(CN)CC1)S(=O)(=O)c1ccc2ccccc2c1 (centres unmarked)	3.92 µM	2.85 µM
COc1ccccc1CN(CC(=O)NCC1CCC(CN)CC1)S(=O)(=O)c1ccc(-c2ccccc2Cl)cc1 (centres unmarked)	0.6 µM	0.21 µM
COc1ccccc1CCN(CC(=O)NCc1ccc(CN)cc1)S(=O)(=O)c1ccc(-c2cccs2)s1	0.96 µM	2.8 µM
COc1ccccc1CCN(CC(=O)NCc1ccc(CN)cc1)S(=O)(=O)c1c(Cl)cccc1Cl	4.03 µM	10 µM
COc1cccc(-c2ccc(S(=O)(=O)N(CC(=O)NCc3ccc(CN)cc3)C[C@H](C)c3ccccc3)cc2)c1 [201]	0.41 µM	0.15 µM
COc1ccccc1CN(CC(=O)NCC1CCC(CN)CC1)S(=O)(=O)c1ccc(-c2ccc(F)c(Cl)c2)cc1 (centres unmarked)	1.38 µM	0.31 µM
COc1ccccc1CCN(CC(=O)NCc1ccc(CN)cc1)S(=O)(=O)c1ccc(-c2ccccc2Cl)cc1	0.63 µM	0.4 µM
C[C@@H](CN(CC(=O)NCc1ccc(CN)cc1)S(=O)(=O)c1ccc(-c2ccccc2)cc1)c1ccccc1 [197]	0.36 µM	0.06 µM
COc1ccccc1CN(CC(=O)NCC1CCC(CN)CC1)S(=O)(=O)c1ccc(C)cc1 (centres unmarked)	≥ 50 µM	12.5 µM
COc1ccccc1CN(CC(=O)NCC1CCC(CN)CC1)S(=O)(=O)c1ccc(-c2ccccc2C)cc1 (centres unmarked)	0.65 µM	0.29 µM
COc1ccccc1CN(CC(=O)NCC1CCC(CN)CC1)S(=O)(=O)c1ccc(Cl)s1 (centres unmarked)	22.1 µM	1.92 µM
C[C@@H](CN(CC(=O)NCc1ccc(CN)cc1)S(=O)(=O)c1ccc(-c2ccc(F)cc2)cc1)c1ccccc1 [204]	0.54 µM	0.19 µM
COc1ccccc1CN(CC(=O)NCC1CCC(CN)CC1)S(=O)(=O)c1ccc([N+](=O)[O-])cc1 (centres unmarked)	6.76 µM	1.27 µM
COc1ccccc1CN(CC(=O)NCC1CCC(CN)CC1)S(=O)(=O)c1ccc(OC)c(OC)c1 (centres unmarked)	28.5 µM	2.07 µM

Structure (SMILES)	EC50 (human FSH receptor)	EC50 (Rat Granulosa Cell)
COc1ccccc1CCN(CC(=O)N[C@H]1CC[C@H](N)CC1)S(=O)(=O)c1ccc(-c2ccco2)cc1	4.76 µM	3.16 µM
COc1ccccc1CCN(CC(=O)NCc1ccc(CN)cc1)S(=O)(=O)c1ccc(Cl)c(Cl)c1	1.24 µM	2.47 µM
COc1ccccc1CN(CC(=O)NCC1CCC(CN)CC1)S(=O)(=O)c1ccccc1[N+](=O)[O-] (centres unmarked)	≥ 50 µM	7.51 µM
COc1ccccc1CN(CC(=O)NCCCCCCN)S(=O)(=O)c1ccc(-c2ccccc2OC)cc1	1.04 µM	0.11 µM
NCc1ccc(CNC(=O)CN(CCc2cccc(Cl)c2)S(=O)(=O)c2ccc(-c3ccccc3Cl)cc2)cc1	0.35 µM	
COc1ccccc1CCN(CC(=O)NCc1ccc(CN)cc1)S(=O)(=O)c1ccc(-c2cccc(F)c2)s1	3.51 µM	
COc1ccccc1CN(CC(=O)NCCCCCCN)S(=O)(=O)c1ccc(-c2ccccc2Cl)cc1	0.3 µM	
COc1ccc(OC)c(S(=O)(=O)N(CCc2ccccc2OC)CC(=O)NCc2ccc(CN)cc2)c1	33.1 µM	
C[C@H](CN(CC(=O)NCCCCCN)S(=O)(=O)c1ccc(-c2ccccc2Cl)cc1)c1ccccc1	0.61 µM	
C[C@@H](CN(CC(=O)NCc1ccc(CN)cc1)S(=O)(=O)c1ccc(-c2ccc(C#N)cc2)cc1)c1ccccc1	0.2 µM	
NCc1ccc(CNC(=O)CN(CCc2cccc(F)c2)S(=O)(=O)c2ccc(-c3ccccc3Cl)cc2)cc1	0.1 µM	
NCCCCCCNC(=O)CN(CCc1cccc(F)c1)S(=O)(=O)c1ccc(-c2ccccc2Cl)cc1	0.1 µM	
C[C@H](CN(CC(=O)NCc1cccc(CN)c1)S(=O)(=O)c1ccc(-c2cccc(F)c2)cc1)c1ccccc1	2.64 µM	
C[C@@H](CN(CC(=O)NCc1ccc(CN)cc1)S(=O)(=O)c1ccc(Br)cc1)c1ccccc1	20 µM	
NCc1ccc(CNC(=O)CN(CC2(c3ccc(Cl)cc3)CC2)S(=O)(=O)c2ccc(-c3ccccc3Cl)cc2)cc1	17 µM	
COc1ccccc1CCN(CC(=O)N1CCNCC1)S(=O)(=O)c1ccc(-c2ccccc2F)cc1	3.76 µM	
Cc1ccc(-c2ccc(S(=O)(=O)N(CC(=O)NCc3ccc(CN)cc3)C[C@H](C)c3ccccc3)cc2)cc1 [465]	2.19 µM	
NCc1ccc(CNC(=O)CN(CCc2ccccc2[N+](=O)[O-])S(=O)(=O)c2ccc(-c3ccccc3Cl)cc2)cc1	0.15 µM	

From US6583179B2, “Substituted aminoalkylamide derivatives as antagonists of follicle stimulating hormone” (Ortho-McNeil Pharmaceutical, Inc., priority 1999, dated 2003)
